# Source: patent publication US8877256B2, “Antimicrobial photo-stable coating composition” (Covalon Technologies Ltd., priority 2007, dated 2014)
substance,measurement,value
Silver-pyrrolidone Carboxylic Acid Complex [silver-PCA],maximum solubility in water,about 300 mM
